Patent publication US9897611B2, “Molecule library constructed on the basis of backbone structure of microprotein” (NATIONAL INSTITUTE OF ADVANCED INDUSTRIAL SCIENCE AND …, priority 2012, dated 2018)

Molecular target: T1, human IgG Fc region (Homo sapiens, UniProt P01857)
T1 construct: The Fc region was prepared by the papain digestion of a human monoclonal antibody IgG
Test: SPR binding affinity analysis on immobilized Fc region prepared by papain digestion of human monoclonal IgG
Settings: alanine variants of p17_2, Fc region immobilized on CM5; read-out: KD (nM), binding dissociation constant of p17_2 variant
Protocol: Subsequently, use of the constructed T7 phage display library is shown in the steps of: contacting the library with the target substance human IgG Fc region; and selecting and recovering phages bound with the human IgG Fc region. The Fc region was prepared by the papain digestion of a human monoclonal antibody IgG (Chugai Pharmaceutical Co., Ltd.) according to the instruction manual attached to Pierce® Fab Preparation Kit (Thermo Fisher Scientific Inc. Pierce) followed by purification by affinity chromatography using MabSelect SuRe (GE Healthcare Japan Corp.), HiTrap DEAE anion-exchange chromatography (GE Healthcare Japan Corp.), and gel filtration chromatography using Superdex 200 (GE Healthcare Japan Corp.). The prepared Fc region was chemically biotinylated via an amino group using D-Biotinoyl-γ-Aminocaproic Acid N-Hydroxysuccinimide Ester (F. Hoffmann-La Roche, Ltd.) according to the attached instruction manual. […]
Subsequently, the prepared p17_2 peptide was analyzed for its binding affinity by surface plasmon resonance. […]
Subsequently, the prepared 5 types of polypeptides were analyzed for their binding affinity by surface plasmon resonance. […]

Q: Which Kd does the source give for “p17_M51A: alanine variant of p17_2 polypeptide, SEQ ID NO: 64 (GPGISAFSPGRGVYDPETGTWYDAAWHLGELVWATYYDPETGTWEPDWQRALGQ; Selected sequence, p17_M51A)” here?
A: The Kd was 180 nM.
